Results taken from PubChem BioAssay AID940 (Emory University Molecular Libraries Screening Center, 2007).
Values joined by “and” are separate entries in the source; they are usually repeats but may differ in a detail not shown here. Identical values can stand only once. This is a selection; strong and weak results do not stand in their true shares. Active and inactive are the calls of the source.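 Rule for the calls: active = compounds whose cAMP rise, as percent of the full-agonist control response, exceeds 60; inactive = the rest.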

Sequences of proteins named here, by UniProt entry; tags and fusion partners are left off. A change or cut given only in a name is not applied to a line headed by its entry.
UniProt P43116: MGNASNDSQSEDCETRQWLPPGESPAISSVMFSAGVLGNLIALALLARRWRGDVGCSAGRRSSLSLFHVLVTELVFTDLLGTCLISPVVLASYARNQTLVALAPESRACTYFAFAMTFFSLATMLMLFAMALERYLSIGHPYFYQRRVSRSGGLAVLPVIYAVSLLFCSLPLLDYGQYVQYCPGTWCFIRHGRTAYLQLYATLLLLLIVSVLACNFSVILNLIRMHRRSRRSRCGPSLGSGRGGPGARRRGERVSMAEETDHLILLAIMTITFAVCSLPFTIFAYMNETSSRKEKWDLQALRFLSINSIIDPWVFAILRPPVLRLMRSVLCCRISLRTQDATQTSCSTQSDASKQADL

molecular target: Prostaglandin E2 receptor EP2 subtype (Homo sapiens) (UniProt P43116); assay: modulation of human EP2 prostaglandin signaling – cell-based, HTRF cAMP, PGE2 stimulation, primary screen (AID 940); details: EP2-expressing cells, cAMP HTRF FRET, PGE2 co-stimulation; at 25 µM; active compounds read high;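 note: rat C6 glioma line stably carrying human EP2 under a CMV promoter; the protocol text gives 20 µM as final concentration; 100% = response of wells given 1 µM PGE2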

Compound	induction
Cc1c2non([O-])c-2c(C)[n+](=O)[n+]1[O-]	inactive: -36.8%
Oc1ccccc1CNc1ccccn1	inactive: -8.87%
NCC[C@@H](N)CSP(=O)(O)O	inactive: 9.65%
CC(=O)Nc1ccc([As](=O)(O)O)cc1	inactive: -15.3%
O=C(O)c1ccccc1[As](=O)(O)O	inactive: 30.1%
O=P(Nc1nc2ccc(Cl)cc2s1)(c1ccccc1)c1ccccc1	inactive: -11.2%
Cc1ccc(NP(=O)(Oc2ccccc2F)Oc2ccccc2F)nc1	inactive: 3.91%
CN(C(=O)Cc1ccc(Cl)c(Cl)c1)[C@H]1CCCC[C@@H]1N1CCCC1	inactive: -16.4% and inactive: 0.58%
Cc1cc(SC(NC(=O)c2ccc(F)cc2)C(Cl)(Cl)Cl)ncn1 (stereo unspecified)	inactive: 43.7%
CCOP(=O)(Nc1ccccc1)OCC	inactive: 16.3% and inactive: 6.02%
[N-]=[N+]=NCC(O)CN=[N+]=[N-] (stereo unspecified)	inactive: 33.8%
CCN(N=Nc1nonc1N)c1nonc1N	inactive: -5.22%
C(Cc1nn[nH]n1)c1nn[nH]n1	inactive: 21.7%
Nc1cccc2ccc([As](=O)(O)O)cc12	inactive: -36.2%
CCNC(=S)/N=C(\N)N[N+](=O)[O-]	inactive: 17.4%
O=C(NC1CCS(=O)(=O)C1)NP(=S)(Oc1ccccc1)Oc1ccccc1 (stereo unspecified)	inactive: 29.8%
CCOC(=O)NC(Sc1ccccc1)C(Cl)(Cl)Cl (stereo unspecified)	inactive: -2.25%
Cc1ccc(NP(=O)(Oc2cccc(C)c2)Oc2cccc(C)c2)nc1	inactive: -32.8%
c1ccc(-c2nn[nH]n2)c(-c2nn[nH]n2)c1	inactive: -0.01%
O=c1[nH]cc(S(=O)(=O)F)c(=O)[nH]1	inactive: 7.59%
Cc1ccc(OP(=O)(Nc2ccccn2)Oc2ccc(C)cc2)cc1	inactive: -49.8%
CC(=O)NC(SC(=S)N(CC(C)C)CC(C)C)C(Cl)(Cl)Cl (stereo unspecified)	inactive: 47.9%
COC(=O)c1cc2c(s1)N=C(c1ccccc1)N(C)P2(=O)N1CCOCC1 (stereo unspecified)	inactive: 18.7%
CCC(=O)N1C2C3N(C(=O)CC)C1C1N(C(=O)CC)C(C(N1C(=O)CC)N3C(=O)CC)N2C(=O)CC	inactive: 8.44%
CN(C(=O)Cc1ccc(Cl)c(Cl)c1)[C@@H]1CCCC[C@@H]1N1CCCC1	inactive: 22%
O=c1c2cc([N+](=O)[O-])ccc2[nH]c2c([N+](=O)[O-])cc([N+](=O)[O-])cc12	inactive: -77.1%

Compound	induction
CN(C)C(=O)Oc1noc2ccccc12	inactive: 4.48%
Cc1ccccc1OP(=O)(Nc1ccccn1)Oc1ccccc1C	inactive: 26.1%
CCOc1ccc(C2=NCC(CBr)S2)cc1 (stereo unspecified)	inactive: -32.3%
O=P1(Nc2nc3ccc(Cl)cc3s2)COc2ccccc2O1 (stereo unspecified)	inactive: -36.4%
CC(C)(C)C(=O)NC(Sc1ccccc1)C(Cl)(Cl)Cl (stereo unspecified)	inactive: 39.1%
C[C@H]1OP(=O)(Oc2ccccc2)C[C@@H]2O[C@@H]21 (stereo partly specified)	inactive: -5.67%
C[C@@H]1C=CCP(=O)(Oc2ccccc2)O1 (stereo partly specified)	inactive: 10%
CC(=O)Nc1ccc(Oc2c([N+](=O)[O-])cc([N+](=O)[O-])cc2[N+](=O)[O-])cc1	inactive: 12.1%
CC(=O)Nc1ccc([As](=O)(O)O)c(O)c1	inactive: -11.8%
CC(C)C(=O)NC(Sc1ccccc1)C(Cl)(Cl)Cl (stereo unspecified)	inactive: 23.5%
O=P(Nc1nccs1)(c1ccccc1)c1ccccc1	inactive: -2.07%
c1nnnn1CCn1cnnn1	inactive: -4.13%
CN1CCC[C@H](OC(=O)C(c2ccccc2)c2ccccc2)C1	inactive: 18.1%
COc1ccc(/C=C2/C(=O)NC(=O)N(Cc3ccco3)C2=O)c(OC)c1	inactive: -70.2%
C[C@@H](O)COc1ccc([As](=O)(O)O)cc1N	inactive: 25.9%
O=P(Nc1ccccn1)(c1ccc(Br)cc1)c1ccc(Br)cc1	inactive: 0.42%
C[C@H]1OP(=O)(Oc2ccccc2)[C@H](O)[C@H](O)[C@H]1N=[N+]=[N-] (stereo partly specified)	inactive: -8.25%
O=P(Nc1nc2ccccc2s1)(c1ccccc1)c1ccccc1	inactive: -30.5%
[N-]=[N+]=Nc1ccc([As](=O)(O)O)cc1	inactive: 23.2%
O=[N+]([O-])c1ncn(CCn2cnc([N+](=O)[O-])n2)n1	inactive: 18.6%
CC(=O)NC(SC(=S)N(C)C)C(Cl)(Cl)Cl (stereo unspecified)	inactive: 29.2%
O=[As](O)(c1ccccc1)c1ccc(O)cc1	inactive: -31.7%
C(Cc1nn[nH]n1)Cc1nn[nH]n1	inactive: 41.3%
Nc1ccc([As](=O)(O)c2ccc([N+](=O)[O-])cc2)cc1	inactive: 19.8%
O=C(OC1CN2CCC1CC2)c1cccc(Cl)c1 (stereo unspecified)	inactive: 20.1%
